From patent US20070299013

Target: factor V^2K2F, quadruple mutant, recombinant human factor V with the mutations D695→K, Y696→F, D697→K, and Y698→F (UniProt P12259)

In the case of human thrombin, the “cofactor activity in prothrombinase assay after incubation of the procofactor with thrombin (10 nM, 15 min, 37 C); wild type ~1800 mOD/min” value was “≦20 mOD/min”.
